From patent US20090099157A1, “TETRAHYDRO-PYRAZOLO-PYRIDINE THIOETHER MODULATORS OF CATHEPSIN S” (priority 2007, published 2009)

Protein sequences, listed by entry. Tags and fused reporters are not part of them. Residues count along the entry.
UniProt P25774, 115-331: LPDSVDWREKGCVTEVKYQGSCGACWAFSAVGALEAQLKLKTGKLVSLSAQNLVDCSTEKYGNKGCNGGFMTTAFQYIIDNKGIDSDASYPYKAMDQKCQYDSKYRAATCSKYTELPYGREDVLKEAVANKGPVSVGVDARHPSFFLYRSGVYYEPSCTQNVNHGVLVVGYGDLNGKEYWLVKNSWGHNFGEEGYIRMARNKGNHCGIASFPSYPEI

Biological target: Recombinant human cathepsin S (CatS) (Homo sapiens, UniProt P25774)
Experiment: biochemical

SMILES	IC50 [nM]
CS(=O)(=O)N1CCc2c(c(-c3ccc(C(F)(F)F)c(SCCN4CCC(F)CC4)c3)nn2CC(O)CN2CCC(O)CC2)C1 (stereo not shown) [Example 488, 1-(3-{3-[3-{[2-(4-Fluoropiperidin-1-yl)ethyl]sulfanyl}-4-(trifluoromethyl)phenyl]-5-(methylsulfonyl)-4,5,6,7-tetrahydro-1H-pyrazolo[4,3-c]pyridin-1-yl}-2-hydroxypropyl)piperidin-4-ol]	320
OC(CN1CCN(c2ccc(F)cc2)CC1)Cn1nc(-c2ccc(C(F)(F)F)c(SCCN3CCCCC3)c2)c2c1CCNC2 (stereo not shown) [Example 403, 1-[4-(4-Fluorophenyl)piperazin-1-yl]-3-(3-{3-[(2-piperidin-1-ylethyl)sulfanyl]-4-(trifluoromethyl)phenyl}-4,5,6,7-tetrahydro-1H-pyrazolo[4,3-c]pyridin-1-yl)propan-2-ol]	630
CS(=O)(=O)N1CCc2c(c(-c3ccc(C(F)(F)F)c(SCCN4CC[C@H](F)C4)c3)nn2C[C@@H](O)CN2CCCCC2)C1 [Example 354, (2S)-1-{3-[3-({2-[(3S)-3-Fluoropyrrolidin-1-yl]ethyl}sulfanyl)-4-(trifluoromethyl)phenyl]-5-(methylsulfonyl)-4,5,6,7-tetrahydro-1H-pyrazolo[4,3-c]pyridin-1-yl}-3-piperidin-1-ylpropan-2-ol]	1270
CC1(C)CCN(C[C@H](O)Cn2nc(-c3ccc(C(F)(F)F)c(SCCN4CC[C@H](F)C4)c3)c3c2CCN(S(C)(=O)=O)C3)CC1 [Example 464, (2S)-1-(4,4-Dimethylpiperidin-1-yl)-3-{3-[3-({2-[(3S)-3-fluoropyrrolidin-1-yl]ethyl}sulfanyl)-4-(trifluoromethyl)phenyl]-5-(methylsulfonyl)-4,5,6,7-tetrahydro-1H-pyrazolo[4,3-c]pyridin-1-yl}propan-2-ol]	650
CS(=O)(=O)N1CCc2c(c(-c3ccc(C(F)(F)F)c(SCCN4CCCC(CO)C4)c3)nn2CC(O)CN2CCC(N3CCCC3=O)CC2)C1 (stereo not shown) [Example 810, 1-[1-(2-Hydroxy-3-{3-[3-({2-[3-(hydroxymethyl)piperidin-1-yl]ethyl}sulfanyl)-4-(trifluoromethyl)phenyl]-5-(methylsulfonyl)-4,5,6,7-tetrahydro-1H-pyrazolo[4,3-c]pyridin-1-yl}propyl)piperidin-4-yl]pyrrolidin-2-one]	70
CS(=O)(=O)N1CCc2c(c(-c3ccc(C(F)(F)F)c(SCCN4CCOC(CO)C4)c3)nn2CC(O)CN2CCCCC2)C1 (stereo not shown) [Example 164, 1-{3-[3-({2-[2-(Hydroxymethyl)morpholin-4-yl]ethyl}sulfanyl)-4-(trifluoromethyl)phenyl]-5-(methylsulfonyl)-4,5,6,7-tetrahydro-1H-pyrazolo[4,3-c]pyridin-1-yl}-3-piperidin-1-ylpropan-2-ol]	400
CC(=O)NC1CCN(CC(O)Cn2nc(-c3ccc(C(F)(F)F)c(SCCN4CCCC4)c3)c3c2CCN(S(C)(=O)=O)C3)C1 (stereo not shown) [Example 450, N-(1-{2-Hydroxy-3-[5-(methylsulfonyl)-3-{3-[(2-pyrrolidin-1-ylethyl)sulfanyl]-4-(trifluoromethyl)phenyl}-4,5,6,7-tetrahydro-1H-pyrazolo[4,3-c]pyridin-1-yl]propyl}pyrrolidin-3-yl)acetamide]	940
CC1CCN(CCSc2cc(-c3nn(C[C@@H](O)CN4CCC(N5C[C@@H](O)CC5=O)CC4)c4c3CN(S(C)(=O)=O)CC4)ccc2C(F)(F)F)CC1 [Example 812, (4S)-4-Hydroxy-1-{1-[(2S)-2-hydroxy-3-{3-[3-{[2-(4-methylpiperidin-1-yl)ethyl]sulfanyl}-4-(trifluoromethyl)phenyl]-5-(methylsulfonyl)-4,5,6,7-tetrahydro-1H-pyrazolo[4,3-c]pyridin-1-yl}propyl]piperidin-4-yl}pyrrolidin-2-one]	90
COc1ccccc1C1CCN(C[C@H](O)Cn2nc(-c3ccc(C(F)(F)F)c(SCCN4CCC(F)CC4)c3)c3c2CCNC3)CC1 [Example 563, (2S)-1-{3-[3-{[2-(4-Fluoropiperidin-1-yl)ethyl]sulfanyl}-4-(trifluoromethyl)phenyl]-4,5,6,7-tetrahydro-1H-pyrazolo[4,3-c]pyridin-1-yl}-3-{4-[2-(methyloxy)phenyl]piperidin-1-yl}propan-2-ol]	150
CN(C)C(=O)CSc1cc(-c2nn(CCCN3CCC(N4CCCC4=O)CC3)c3c2CN(S(C)(=O)=O)CC3)ccc1C(F)(F)F [Example 85, 2-[5-(5-Methanesulfonyl-1-{3-[4-(2-oxo-pyrrolidin-1-yl)-piperidin-1-yl]-propyl}-4,5,6,7-tetrahydro-1H-pyrazolo[4,3-c]pyridin-3-yl)-2-trifluoromethyl-phenylsulfanyl]-N,N-dimethyl-acetamide]	520
CC(C)(C)NCCSc1cc(-c2nn(CCCN3CCC(N4CCCC4=O)CC3)c3c2CN(S(C)(=O)=O)CC3)ccc1C(F)(F)F [Example 144, 1-[1-(3-{3-[3-({2-[(1,1-Dimethylethyl)amino]ethyl}sulfanyl)-4-(trifluoromethyl)phenyl]-5-(methylsulfonyl)-4,5,6,7-tetrahydro-1H-pyrazolo[4,3-c]pyridin-1-yl}propyl)piperidin-4-yl]pyrrolidin-2-one]	3090
CC1CCN(CC(O)Cn2nc(-c3ccc(C(F)(F)F)c(SCCN4CCOCC4)c3)c3c2CCN(S(C)(=O)=O)C3)CC1 (stereo not shown) [Example 175, 1-(4-Methylpiperidin-1-yl)-3-[5-(methylsulfonyl)-3-{3-[(2-morpholin-4-ylethyl)sulfanyl]-4-(trifluoromethyl)phenyl}-4,5,6,7-tetrahydro-1H-pyrazolo[4,3-c]pyridin-1-yl]propan-2-ol]	200
CS(=O)(=O)N1CCc2c(c(-c3ccc(Cl)c([S+]([O-])Cc4ccccc4)c3)nn2CCCN2CCOCC2)C1 (stereo not shown) [Example 143, 3-(4-Chloro-3-phenylmethanesulfinyl-phenyl)-5-methanesulfonyl-1-(3-morpholin-4-yl-propyl)-4,5,6,7-tetrahydro-1H-pyrazolo[4,3-c]pyridine]	1200
CS(=O)(=O)N1CCc2c(c(-c3ccc(C(F)(F)F)c(SCCN4CCO[C@@H](CO)C4)c3)nn2C[C@@H](O)CN2CCC(N3CCCC3=O)CC2)C1 [Example 196, 1-{1-[(2S)-2-Hydroxy-3-{3-[3-({2-[(2R)-2-(hydroxymethyl)morpholin-4-yl]ethyl}sulfanyl)-4-(trifluoromethyl)phenyl]-5-(methylsulfonyl)-4,5,6,7-tetrahydro-1H-pyrazolo[4,3-c]pyridin-1-yl}propyl]piperidin-4-yl}pyrrolidin-2-one]	50

More lines, in order of falling IC50, values ahead:

IC50 [nM]	SMILES
8080	CN1CCc2c(c(-c3ccc(C(F)(F)F)c(SCCN4CCCC4)c3)nn2C[C@@H](O)CN2CCC(N3C[C@H](O)CC3=O)CC2)C1 [Example 420, (4R)-4-Hydroxy-1-{1-[(2S)-2-hydroxy-3-(5-methyl-3-{3-[(2-pyrrolidin-1-ylethyl)sulfanyl]-4-(trifluoromethyl)phenyl}-4,5,6,7-tetrahydro-1H-pyrazolo[4,3-c]pyridin-1-yl)propyl]piperidin-4-yl}pyrrolidin-2-one]
900	COCCCNCCSc1cc(-c2nn(CCCN3CCC(N4CCCC4=O)CC3)c3c2CN(S(C)(=O)=O)CC3)ccc1C(F)(F)F [Example 31, 1-{1-[3-(5-Methanesulfonyl-3-{3-[2-(3-methoxy-propylamino)-ethylsulfanyl]-4-trifluoromethyl-phenyl}-4,5,6,7-tetrahydro-pyrazolo[4,3-c]pyridin-1-yl)-propyl]-piperidin-4-yl}-pyrrolidin-2-one]
590	CC(C)(C)OC(=O)NC1CCN(CCSc2cc(-c3nn(CCCN4CCC(N5CCCC5=O)CC4)c4c3CN(S(C)(=O)=O)CC4)ccc2C(F)(F)F)CC1 [Example 891, 1,1-Dimethylethyl {1-[2-({5-[5-(methylsulfonyl)-1-{3-[4-(2-oxopyrrolidin-1-yl)piperidin-1-yl]propyl}-4,5,6,7-tetrahydro-1H-pyrazolo[4,3-c]pyridin-3-yl]-2-(trifluoromethyl)phenyl}sulfanyl)ethyl]piperidin-4-yl}carbamate]
340	CS(=O)(=O)N1CCc2c(c(-c3ccc(C(F)(F)F)c(SCCN4CCC(F)(F)CC4)c3)nn2C[C@@H](O)CN2C=NCCC2)C1 [Example 493, (2S)-1-{3-[3-{[2-(4,4-Difluoropiperidin-1-yl)ethyl]sulfanyl}-4-(trifluoromethyl)phenyl]-5-(methylsulfonyl)-4,5,6,7-tetrahydro-1H-pyrazolo[4,3-c]pyridin-1-yl}-3-(5,6-dihydropyrimidin-1(4H)-yl)propan-2-ol]
260	CS(=O)(=O)N1CCc2c(c(-c3ccc(C(F)(F)F)c(SCCN4CCC(F)(F)C4)c3)nn2CC(O)CN2CCCCC2)C1 (stereo not shown) [Example 421, 1-{3-[3-{[2-(3,3-Difluoropyrrolidin-1-yl)ethyl]sulfanyl}-4-(trifluoromethyl)phenyl]-5-(methylsulfonyl)-4,5,6,7-tetrahydro-1H-pyrazolo[4,3-c]pyridin-1-yl}-3-piperidin-1-ylpropan-2-ol]
160	CC(C)(C)C1CCN(CC(O)Cn2nc(-c3ccc(C(F)(F)F)c(SCCN4CCCC4)c3)c3c2CCN(S(C)(=O)=O)C3)CC1 (stereo not shown) [Example 539, 1-[4-(1,1-Dimethylethyl)piperidin-1-yl]-3-[5-(methylsulfonyl)-3-{3-[(2-pyrrolidin-1-ylethyl)sulfanyl]-4-(trifluoromethyl)phenyl}-4,5,6,7-tetrahydro-1H-pyrazolo[4,3-c]pyridin-1-yl]propan-2-ol]
130	CN(C)c1ccc2c(n1)n(C1CCN(CC(O)Cn3nc(-c4ccc(C(F)(F)F)c(SCCN5CCCCC5)c4)c4c3CCNC4)CC1)c(=O)n2C (stereo not shown) [Example 229, 5-(Dimethylamino)-3-{1-[2-hydroxy-3-(3-{3-[(2-piperidin-1-ylethyl)sulfanyl]-4-(trifluoromethyl)phenyl}-4,5,6,7-tetrahydro-1H-pyrazolo[4,3-c]pyridin-1-yl)propyl]piperidin-4-yl}-1-methyl-1,3-dihydro-2H-imidazo[4,5-b]pyridin-2-one]
40	O=C(CO)N1CCc2c(c(-c3ccc(C(F)(F)F)c(SCCN4CCCCC4)c3)nn2CC(O)CN2CCC(N3CCCC3=O)CC2)C1 (stereo not shown) [Example 240, 1-(1-{2-Hydroxy-3-[5-(hydroxyacetyl)-3-{3-[(2-piperidin-1-ylethyl)sulfanyl]-4-(trifluoromethyl)phenyl}-4,5,6,7-tetrahydro-1H-pyrazolo[4,3-c]pyridin-1-yl]propyl}piperidin-4-yl)pyrrolidin-2-one]
